Test results published in ChEMBL document CHEMBL3576802, “Discovery of a β-Hairpin Octapeptide, c[Pro-Arg-Phe-Phe-Dap-Ala-Phe-DPro], Mimetic of Agouti-Related Protein(87-132) [AGRP(87-132)] with Equipotent Mouse Melanocortin-4 Receptor (mMC4R) Antagonist Pharmacology” (J Med Chem, 2015).

Chains of the proteins cited; added tags and fusions are not shown. Lines headed by an entry give the natural chain unless they say otherwise; changes in a name come on top.
UniProt P33033: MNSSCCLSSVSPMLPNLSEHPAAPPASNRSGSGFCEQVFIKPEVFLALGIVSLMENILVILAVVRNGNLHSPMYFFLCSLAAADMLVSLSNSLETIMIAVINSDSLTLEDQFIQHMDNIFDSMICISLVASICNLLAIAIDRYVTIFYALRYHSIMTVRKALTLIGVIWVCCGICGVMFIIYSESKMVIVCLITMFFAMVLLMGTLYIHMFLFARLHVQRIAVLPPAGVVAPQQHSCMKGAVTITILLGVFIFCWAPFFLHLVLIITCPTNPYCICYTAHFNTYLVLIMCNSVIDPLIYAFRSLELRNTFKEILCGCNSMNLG

Biological target: Melanocortin receptor 3 (Mus musculus, UniProt P33033)
Assay: Displacement of MTII from mouse MC3R expressed in HEK293 cells
Assay type: cell-based
Settings: for Kb: read-out: pA2 (converted)

| Structure (SMILES) | Ki [µM] | Kb [µM] |
| --- | --- | --- |
| C[C@@H]1NC(=O)[C@H](CC(N)=O)NC(=O)[C@H](Cc2ccccc2)NC(=O)[C@H](Cc2ccccc2)NC(=O)[C@H](CCCNC(=N)N)NC(=O)[C@@H]2CCCN2C(=O)[C@H]2CCCN2C(=O)[C@H](Cc2ccccc2)NC1=O | 0.4 | 0.398 |
| C[C@@H]1NC(=O)[C@H](CC(N)=O)NC(=O)[C@H](Cc2ccccc2)NC(=O)C(Cc2cccc3ccccc23)NC(=O)[C@H](CCCNC(=N)N)NC(=O)[C@@H]2CCCN2C(=O)[C@H]2CCCN2C(=O)[C@H](Cc2ccccc2)NC1=O (stereo partly drawn) |  | 0.794 |
